Compound activity as filed in PubChem.
UUG fidelity: modulators of yeast start codon fidelity, primary screen, whole organism, S. cerevisiae, single point, plate reader | AID 602363, 2012 | actives 0.13% (n = 350,000) | activity score, % at 18.7 µM | S. cerevisiae UUG-firefly luciferase reporter, luminescence/redox ratio;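 active means replicate mean at a twofold rise or more, about +100% in these data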;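 further: firefly luciferase made from a UUG start codon reports start codon fidelity; reporter light over untreated wells divided by growth signal over untreated wells; some hits fall short of that in this replicate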
HIV Env fusion: inhibitors of HIV-1 Env-driven cell-cell fusion, primary screen, HeLa-JRFL effector, CEM21 target cells, luciferase; inhibition, % at 12.3 µM; actives 1.1% (n = 360,000); AID 651610, 2012;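 active means mean replicate inhibition score of at least 50 and every replicate individually at or above 50; inconclusive means only one of the two criteria met; inactive means mean below 50 and not all replicates reaching 50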
Cneo AK release: Cryptococcus neoformans cell lysis inducers, primary screen, AK release luminescence, single concentration | AID 651654, 2012 | C. neoformans lysis, adenylate kinase release luminescence, 4 h; normalised: neutral wells 0, clomiphene wells 100 | actives 0.2% (n = 360,000) | lysis activity, % at 15 µM;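 active means mean lysis activity across replicates of at least 80%, whatever share of replicates individually reach that level; inactive means mean lysis activity below 80%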
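Material – Cryptococcus neoformans yeast cells · Quantity – 5 × 10^6 yeast cells/mL · Buffer or medium – YPD medium · Compound – single dose · Timing – 4 h static compound exposure, 37 °C, read 1 h post-reagent · Signal – adenylate kinase release luminescence · Read-out basis – lysis from increased AK signal · Benchmarks – Clomiphene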
miR122 inh: miR-122 Renilla sensor signal increase in Huh7, primary screen, miR-122 inhibitor project, cell-based, single point, plate reader; activation (reporter increase), % at 12.5 µM; actives 0.3% (n = 340,000); Huh7 miR-122 Renilla luciferase sensor, 48 h; neutral wells = 0, positive control = 100;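 active means mean replicate activation score at least 90 and every replicate individually at or above 90; inconclusive means only one of the two criteria met; inactive means neither criterion met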;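 further: higher luciferase means less miR-122 activity so hits act as miR-122 inhibitors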
FN deposit inh: inhibitors of fibronectin matrix deposition, primary screen, AH1F cells, Alexa488-fibronectin fluorescence, plate reader | AH1F fibroblasts, overnight | AID 743247, 2014 | actives 0.086% (n = 350,000) | inhibition, % at 12.6 µM;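 active means mean inhibition across replicates of 30% or more, regardless of how many single replicates reach that level; inconclusive means mean under 30% yet at least half of replicates reach 30%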
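Material – AH1F fibroblast monolayer, labelled fibronectin deposition · Reagent – labelled fibronectin 24 nM · Timing – 1 h adhesion, overnight exposure · Measured by – fluorescence at 485 nm excitation, 525 nm emission · Read-out – inhibition of fibronectin deposition signal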
PGC1a acetyl inh: inhibitors of PGC1a acetylation signal, primary screen, cell-based, U2OS, AlphaScreen, inhibitor mode; AlphaScreen anti-acetyl-lysine; with virally co-expressed GCN5 acetyltransferase; actives 0.17% (n = 350,000); inhibition, % at 15.6 µM; AID 651687, 2012;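 active means every replicate shows inhibition of at least 40%; inconclusive means mean inhibition at least 40% but some replicate below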
Large screens that a line does not name were inactive; ! = a repeat was not active; [ ] = remark or other dose. Most compounds without a hit are left out; they make up all but 1.5% or so of the library.

Cc1cccc(C)c1OCC(O)Cn1c2ccccc2c2ccccc21 (stereo not given)	HIV Env fusion 57.1
O=C(CN1CCN(Cc2ccc(Cl)cc2)C1=O)NCCCN1CCN(c2ccc(F)cc2)CC1	HIV Env fusion 67.7
O=C(CN1CCN(Cc2ccc(Cl)cc2)C1=O)NCCCN1CCOCC1	none
Cc1cc(C(C)(C)C)ccc1OCCCCN1CCCC1	none (no result: UUG fidelity, Cneo AK release, miR122 inh, PGC1a acetyl inh)
Cc1cc[n+](CC[n+]2ccc(C)cc2)cc1	none
CCC(C)(C)c1ccc(OCCCC[n+]2ccc(C)cc2)c(C(C)(C)CC)c1	HIV Env fusion 126.9 (no result: UUG fidelity, Cneo AK release, miR122 inh, PGC1a acetyl inh)
CCC(C)(C)c1ccc(OCCCC[n+]2cccc(C)c2C)c(C(C)(C)CC)c1	HIV Env fusion 99.2
CC1CCC(C(C)C)C(OC(=O)C[n+]2cc(-c3ccc(Cl)cc3)n3c2CCCCC3)C1 (stereo not given)	HIV Env fusion 60.4 (no result: UUG fidelity, Cneo AK release, FN deposit inh)
Cc1ccc2[nH]c3c(c2c1)CN(C(=O)CN1c2ccc(F)cc2CCC1C)CC3 (stereo not given)	HIV Env fusion 59.7 (no result: PGC1a acetyl inh)
Cc1csc(=O)n1CCC(=O)OCC(=O)Nc1ccc(C(N)=O)cc1	none (no result: HIV Env fusion, miR122 inh, PGC1a acetyl inh)
O=C(c1ccc(Br)cc1)C(CN1CCOCC1)c1ccccc1 (stereo not given)	FN deposit inh 34.2 (no result: PGC1a acetyl inh)
Cc1ccc(C(=O)N2CCC3(CC2)Oc2ccc(Cl)cc2C(=O)C32CC(c3cccnc3)=NO2)s1 (stereo not given)	none
O=C(/C=C/c1cccs1)N1CCC2(CC1)Oc1ccc(Cl)cc1C(=O)C21CC(c2cccnc2)=NO1 (stereo not given)	FN deposit inh 31.4
COc1ccc(N2C(=O)C3CCCN3C2c2ccc(C)o2)cc1 (stereo not given)	none
CC1(C(=O)Nc2cccc(C#N)c2)CCN1C(=O)Cc1ccc(-c2ccccc2)cc1 (stereo not given)	none
CC1(C(=O)Nc2cccc(C#N)c2)CCN1C(=O)CCc1ccccc1 (stereo not given)	PGC1a acetyl inh 43.6
COc1ccc(C2=Nn3c(nnc3-c3ccccc3OC)SC2)cc1OC1CCOC1 (stereo not given)	miR122 inh 131.4 (no result: PGC1a acetyl inh)
CC(C)CCN1CCN=C1Nc1ccccc1	HIV Env fusion 59.8
O=C(NCCc1ccccc1)C(=O)NCC1OCCN1S(=O)(=O)c1ccc2c(c1)OCCO2 (stereo not given)	none (no result: FN deposit inh)
COc1ccc(C2N(S(=O)(=O)c3ccc(C)cc3)CCN2S(=O)(=O)c2ccc(C)cc2)cc1	HIV Env fusion 104.8 (no result: PGC1a acetyl inh)
Cc1ccc(S(=O)(=O)N2CCN(S(=O)(=O)c3ccccc3)C2c2ccc(N(C)C)cc2)cc1 (stereo not given)	HIV Env fusion 53.1
COc1ccc(C2N(C(C)=O)CCN2S(=O)(=O)c2ccc(C)cc2)cc1 (stereo not given)	none
O=C(O)CCSc1ncnc2sc(-c3ccccc3)cc12	HIV Env fusion 68.4
C[C@@H]1CN([C@H](C)CO)C(=O)Cc2cc(N(C)C)ccc2O[C@H]1CN(C)C(=O)Nc1ccc(C(F)(F)F)cc1	none
C[C@@H]1CN([C@@H](C)CO)C(=O)c2cc(N(C)C)ccc2O[C@@H]1CN(C)C(=O)Nc1ccc(C(F)(F)F)cc1	Cneo AK release 116.8 (no result: HIV Env fusion)
Cc1noc(C)c1NC(=O)N(C)C[C@H]1Oc2ccc(N(C)C)cc2C(=O)N([C@H](C)CO)C[C@@H]1C	Cneo AK release 101.7 (no result: FN deposit inh)
C[C@H](CO)N1C[C@H](C)[C@@H](CN(C)Cc2ccc(C(F)(F)F)cc2)Oc2ccc(N(C)C)cc2C1=O	HIV Env fusion inconclusive, miR122 inh 98.0[16.7 µM] (no result: Cneo AK release)
C[C@H]1CN([C@@H](C)CO)C(=O)Cc2cc(N(C)C)ccc2O[C@@H]1CN(C)C(=O)Nc1ccc(C(F)(F)F)cc1	Cneo AK release 141.6
CSc1cccc(NC(=S)N(CCC(C)C)C2CCN(C(C)=O)CC2)c1	none (no result: UUG fidelity, Cneo AK release)
O=C(COc1cccnc1[N+](=O)[O-])NCCc1ccc(Cl)cc1	PGC1a acetyl inh inconclusive (no result: miR122 inh)
COc1ccc(OC)c(S(=O)(=O)NC2CCCCC2)c1	none (no result: HIV Env fusion, FN deposit inh)
COc1ccc(S(=O)(=O)NC2CCCC2)c(OC)c1	none (no result: miR122 inh, PGC1a acetyl inh)
COc1ccc(S(=O)(=O)NC2CCCCC2)c(C)c1C	miR122 inh 111.4 (no result: HIV Env fusion, FN deposit inh)
COc1ccc(C)cc1S(=O)(=O)NC1CCCCCC1	miR122 inh 101.0 (no result: FN deposit inh, PGC1a acetyl inh)
N#C[C@@H]1[C@@H](c2ccc(C3=CCCC3)cc2)[C@@H](CO)N1C(=O)Cc1ccncc1	none (no result: miR122 inh)
CNC(=O)c1c(NC(=O)CCS(=O)(=O)c2ccccc2)sc(C)c1C	none
CC1CCCN(C(=O)Cc2ccc(F)cc2)C1 (stereo not given)	PGC1a acetyl inh 75.3
O=S1(=O)CCN(c2ccccc2CC(c2c[nH]c3ccccc23)c2c[nH]c3ccccc23)CC1	HIV Env fusion 84.9 (no result: UUG fidelity, Cneo AK release)
COc1ccc(S(=O)(=O)Nc2ccc3c(c2)CC(=O)N([C@@H](C)CO)C[C@H](C)[C@H](CN(C)S(=O)(=O)c2ccccc2)O3)cc1	HIV Env fusion 66.0[16.7 µM] (no result: FN deposit inh)
CCOC(=O)CCCCCC(=O)Nc1ccc2c(c1)CC(=O)N([C@H](C)CO)C[C@H](C)[C@H](CN(C)S(=O)(=O)c1ccc(OC)cc1)O2	HIV Env fusion 95.7
Cc1ccc(S(=O)(=O)Nc2ccc3c(c2)CC(=O)N([C@H](C)CO)C[C@H](C)[C@H](CN(C)S(=O)(=O)c2ccc(C)cc2)O3)cc1	HIV Env fusion 89.6[16.7 µM] (no result: FN deposit inh)
Cc1ccc(S(=O)(=O)Nc2ccc3c(c2)CC(=O)N([C@@H](C)CO)C[C@@H](C)[C@H](CN(C)S(=O)(=O)c2ccc(C)cc2)O3)cc1	none (no result: FN deposit inh)
COc1ccc(S(=O)(=O)N(C)C[C@@H]2Oc3ccc(NC(=O)CCCCCC(=O)Nc4ccccc4N)cc3CC(=O)N([C@@H](C)CO)C[C@H]2C)cc1	none (no result: FN deposit inh)
C[C@@H]1CN([C@@H](C)CO)C(=O)CCCn2nncc2CO[C@H]1CN(C)S(=O)(=O)c1ccc(Cl)cc1	PGC1a acetyl inh 96.7!
COc1cc(C(=O)Nc2ccc(S(=O)(=O)Nc3cnc4ccccc4n3)cc2)cc(OC)c1OC	none
O=C(CN1CCCCC1)NN(Cc1ccccc1)c1ccccc1	none (no result: UUG fidelity, Cneo AK release, miR122 inh)
Cc1ccc(S(=O)(=O)Nc2ccc3c(c2)CC(=O)N([C@@H](C)CO)C[C@H](C)[C@H](CN(C)S(=O)(=O)c2ccc(Cl)cc2)O3)cc1	none (no result: FN deposit inh)
COc1ccc(S(=O)(=O)N(C)C[C@@H]2Oc3ccc(NS(=O)(=O)c4ccc(C)cc4)cc3CC(=O)N([C@H](C)CO)C[C@@H]2C)cc1	none (no result: FN deposit inh)
